Source: PubChem
Hits are enriched below; roughly 3.7% of the tested compounds scored in any of these assays.
p53 reactivation = mutant p53 re-activation in reporter cells; Potency, µM (series often up to 92.2 µM), actives largely listed as activators; H1299 p53-A138V BP100-luciferase reporter, luminescence, 24 h; 320,000 compounds, 0.063% hits; also: nearly all actives have a fitted effect of over 45% in size
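H1299 (p53-null), stable ts p53-A138V + BP100-Luc; 1000 cells/well, Opti-MEM/10% FBS; cpd 4 pt, 1:5; 24 h, 37 deg C, 5% CO2; detection reagent 10 min RT; luminescence.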
Nrf2 block = blocks Nrf2 signaling. A549 ARE-Fluc reporter, luciferase luminescence, 18-24 h. Potency, µM (top dose mostly 46 µM), most hits filed as inhibitors. 360,000 compounds, 2.1% hits; also: nearly all actives have a fitted effect of over 60% in size
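Concentration-response testing used A549 ARE_Fluc cells at 5000 cells/well. Following an 18-24 h compound incubation, viability was read by fluorescence (Ex 405/Em 525) and luciferase output by luminescence.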
Nrf2 activator = activators of Nrf2 (ARE) signaling. AREc32 ARE-luciferase reporter (MCF7-derived line), luminescence, 24 h. Potency, µM (titrated, usually from 46.1 µM), most hits filed as activators. 410,000 compounds, 0.31% hits. AID 624171; also: nearly all actives have a fitted effect of over 65% in size
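AREc32 cells carrying an ARE-driven firefly luciferase reporter were seeded at 1000 cells/well in OPTI-MEM with 5% FBS, then exposed to compound for 24 hr at 37 deg C. Luminescence was read with Steady-Glo after 30 min at RT.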
A549 tox = counter-screen for Nrf2 inhibitors: cytotoxicity in A549 cells | A549 ARE-Fluc cells, CellTiter-Fluor viability, 18-24 h | Potency, µM (top dose mostly 46 µM), hits mostly inhibitors | 390,000 compounds, 0.16% hits | AID 504648
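A549 ARE-Fluc cells in 5% FBS OPTI-MEM, 5000 cells/well, rested 2 h then exposed to compounds in concentration-response for 18-24 h at 37 °C. Viability by CellTiter-Fluor fluorescence (Ex 405/Em 525) after 30 min; luciferase luminescence (BugLite, 15 min, RT) read afterwards.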
miR-21 reporter = miR-21 reporter, rising signal | HeLa miR-21 FLuc reporter, luciferase, 48 h | Potency, µM (top dose mostly 38.3 µM) | 340,000 tested, under 10 active | AID 2288; active = well fitted rising curve with a large enough effect; inconclusive = small, poorly fitted or top-dose-only effect; inactive = no such curve, though single readings can be large or run the other way;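 note: miR-21 action dims this reporter so a rising signal means less miR-21 action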
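HeLa miR-21-FLuc reporter line, endogenous miR-21; 2000 cells/well in DMEM/10% FBS; compound titration up to ~40uM final, 48 h, 37 degree Celsius; luciferase detection reagent, 15 min lysis, CCD luminescence.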
ClpP mod = qHTS Assay for Activators of ClpP. 340,000 compounds, 1.9% hits. purified B. subtilis ClpP, FRET peptide cleavage, 20 min. AID 651965, 2013. Potency, µM (series often up to 57.5 µM); active = well fitted falling curve with a large enough effect; inconclusive = small, poorly fitted or top-dose-only effect; inactive = no such curve, though single readings can be large or run the other way; also: the source files actives as falling curves though it sought activators and does not explain the sign; nearly all actives have a fitted effect of over 65% in size
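FRET quenching reversal measured ClpP activation: 10 microg/mL B. subtilis ClpP at pH 8 with the FRET-FV decapeptide, read at 430 nm after 320 nm excitation. The 20-min minus 0-min signal was scaled between DMSO/no-enzyme wells and ADEP (5.8 microM final).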
Of the large screens only hits and unclear results are named; the others gave an inactive call; ! = repeats disagree. Unless noted, calls follow the shape of the dose curve; as a rule, active = well fitted curve in the direction sought with a large enough effect; inconclusive = small, poorly fitted or top-dose-only effect, or another doubt; inactive = no such curve, though single readings can be large; an effect the other way counts as inactive or inconclusive.

Cc1cc(N2CCCC(C(=O)Nc3ccc4c(c3)CCC4)C2)n2ncnc2n1 (stereo not given)	Nrf2 block 13µM
Fc1ccc(N2CCN(c3ncnc4c3nnn4Cc3ccccc3Cl)CC2)cc1	Nrf2 block 13µM, ClpP mod inconclusive (no result: p53 reactivation, miR-21 reporter)
Cc1c(Cc2ccccc2)c(=O)n2c([nH]c3ccccc32)c1C#N	Nrf2 block 14.6µM
CCOC(=O)C1=CCC2c3c(c4ccccc4n3C)C(=O)C1N2C(=O)OC(C)(C)C (stereo not given)	Nrf2 block 14.6µM, A549 tox inconclusive (no result: miR-21 reporter)
CCOC(=O)C1=C(c2ccccc2)N=c2s/c(=C\c3ccc(O)cc3)c(=O)n2C1c1cccs1 (stereo not given)	Nrf2 block 16.4µM, A549 tox inconclusive
Cc1ccc(-c2cn3nc(N4CCCC(C(=O)NCc5ccccc5F)C4)sc3n2)cc1 (stereo not given)	Nrf2 block inconclusive (no result: p53 reactivation)
C#CC1(O)CCC2C3CCc4cc(O)cc(C)c4C3CCC21C (stereo not given)	ClpP mod 31.6µM (no result: p53 reactivation, miR-21 reporter)
CC(C)n1cc(-c2ccc(Cl)cc2)cc(C#N)c1=O	ClpP mod 31.6µM
N#Cc1cc(-c2ccc(Cl)cc2)cn(Cc2c(Cl)cccc2Cl)c1=O	ClpP mod 25.1µM (no result: Nrf2 block)
C=CCn1cc(-c2ccc(Cl)cc2)cc(C#N)c1=O	ClpP mod 31.6µM
C=CCn1cc(-c2ccccc2)cc(C#N)c1=O	ClpP mod inconclusive
Cn1cc(-c2cccc(Cl)c2)cc(C#N)c1=O	none (no result: ClpP mod)
CC1=C(C(=O)Nc2cccnc2)C(c2ccc(Cl)cc2)n2nc(SCc3ccccc3)nc2N1 (stereo not given)	none (no result: p53 reactivation)
Cc1cccc(NC(=O)CCNS(=O)(=O)c2ccc3c(c2)CCN3C(=O)C2CC2)c1	none (no result: p53 reactivation, Nrf2 block)
CCCCCCC(=O)Nc1ccc2nc3c(=O)n(C)c(=O)n(C)c3nc2c1C	none (no result: p53 reactivation)
Cc1ccc(Cl)cc1N1CCN(C(=O)c2cc(S(=O)(=O)N3CCC(C)CC3)cn2C)CC1	none (no result: p53 reactivation, Nrf2 block)
CCOC(=O)/C(=C\c1ccc(Cl)cc1)c1nc2sc(C)c(C)c2c(=O)[nH]1	Nrf2 block 18.4µM, Nrf2 activator inconclusive, A549 tox inconclusive
CC1(C)Cc2c(cnn2-c2ccccc2)-c2c1c1ccccc1n2CC(O)CCl (stereo not given)	Nrf2 block inconclusive, ClpP mod 22.4µM
C[C@@H]1C(=O)O[C@@H]1[C@@H](C)CO[Si](c1ccccc1)(c1ccccc1)C(C)(C)C	none (no result: p53 reactivation, Nrf2 activator, miR-21 reporter, ClpP mod)
N#Cc1ccc(C(=O)NC2CCCCCCC2)cc1	p53 reactivation 35.5µM, Nrf2 block inconclusive (no result: ClpP mod)
O=C(CC1CCCCC1)N1CCN(c2ccccn2)CC1	ClpP mod 31.6µM
CC(C)c1nnc(NC(=O)CCC(=O)N2CCN(c3ccccn3)CC2)s1	ClpP mod inconclusive
CC(C)Cc1nnc(NC(=O)CCC(=O)N2CCN(c3ccccn3)CC2)s1	ClpP mod 25.1µM
O=C(CC1c2ccccc2Oc2ccccc21)N1CCN(c2ccccn2)CC1	none
COc1ccccc1CC(=O)N1CCN(c2ccccn2)CC1	ClpP mod 22.4µM
COc1ccccc1CC(=O)N1CCCC1	none
CC(C)CC(NC(=O)C1CCCCC1)C(=O)N1CCN(c2ccccn2)CC1 (stereo not given)	Nrf2 block inconclusive, ClpP mod 28.2µM
N[C@@H](Cc1ccc(O)cc1)C(=O)NO	none (no result: p53 reactivation, Nrf2 block, Nrf2 activator, A549 tox, miR-21 reporter)
COc1ccc(CNC(=O)CN2C(=O)c3cccnc3Oc3ccc(C)cc32)cc1	none (no result: p53 reactivation)
CCc1nnc(NC(=O)CCC(=O)N2CCN(Cc3ccc(C)cc3C)CC2)s1	none (no result: ClpP mod)
Cc1ccccc1C(=O)N1CCCC(CCC(=O)N2CCN(c3ccccn3)CC2)C1 (stereo not given)	Nrf2 block 23.1µM (no result: ClpP mod)
Cc1ncccc1C(=O)N1CCCC(CCC(=O)N2CCN(c3ccccn3)CC2)C1 (stereo not given)	none
O=C(O)CCC(=O)N1CCN(c2ccccn2)CC1	ClpP mod 25.1µM
CCc1nnc(NC(=O)CCC(=O)N2CCN(CCOc3ccc(C)cc3)CC2)s1	Nrf2 block 20.6µM
Cc1cc(OCC(=O)N2CCN(c3ccccn3)CC2)c(C)cc1Br	Nrf2 block inconclusive, ClpP mod 35.5µM
COc1ccc(OCc2nc(C#N)c(NCc3ccccc3Cl)o2)cc1	none (no result: p53 reactivation)
CCOC(=O)N1CCC(NC(=O)CC(NS(=O)(=O)c2ccc(Cl)cc2)c2ccco2)CC1 (stereo not given)	ClpP mod 31.6µM
COc1ccc(S(=O)(=O)NC(CC(=O)NC2CCCC2)c2ccco2)cc1 (stereo not given)	none (no result: Nrf2 block)
Cc1ccc(S(=O)(=O)NC(CC(=O)NC2CCCC2)c2ccco2)cc1 (stereo not given)	ClpP mod 28.2µM (no result: Nrf2 block)
COc1ccc(N(C)S(=O)(=O)c2ccc3c(c2)n(C)c(=O)c(=O)n3C)cc1	none (no result: p53 reactivation)
COc1ccccc1C1CC(c2ccc(Br)cc2)=NN1C(=O)c1cccnc1 (stereo not given)	Nrf2 block inconclusive
COc1cccc(C2CC(c3ccc(Br)cc3)=NN2C(=O)c2ccncc2)c1OC (stereo not given)	Nrf2 block 18.4µM (no result: ClpP mod)
Fc1cccc(Cl)c1Cc1noc(/C=C/c2ccccc2)n1	p53 reactivation inconclusive, Nrf2 block inconclusive, Nrf2 activator 15.8µM
CNC(=O)c1cnn2c(C)cc(C)nc12	none (no result: p53 reactivation, Nrf2 activator, miR-21 reporter, ClpP mod)
CCCn1c(-c2ccc(OC)cc2)nc2nc3ccccc3nc21	ClpP mod 28.2µM (no result: Nrf2 block)
COc1ccc(OC)c(CCNc2ncnc3onc(-c4ccc(Cl)cc4)c23)c1	Nrf2 block inconclusive (no result: p53 reactivation)
COc1cc(S(=O)(=O)n2ccc(C)n2)c(C)cc1C	none (no result: p53 reactivation, Nrf2 block, A549 tox, miR-21 reporter)
Cc1ccccc1S(=O)(=O)Cc1ccc(C(=O)NC2CC2)o1	Nrf2 block 20.6µM, A549 tox inconclusive
Cc1ccccc1S(=O)(=O)Cc1ccc(C(=O)NC2CCCC2)o1	Nrf2 block inconclusive
COc1ccc(S(=O)(=O)Cc2ccc(C(=O)NC3CCCCC3)o2)cc1	Nrf2 block 14.6µM!
Cc1ccccc1NC(=O)c1sc2nc(-c3cc4ccccc4oc3=O)[nH]c(=O)c2c1C	Nrf2 block inconclusive (no result: p53 reactivation)
Cc1cc(C(=O)NCc2ccccc2Cl)c2c(C)nn(-c3ccccc3)c2n1	Nrf2 block inconclusive (no result: p53 reactivation)
CCOCCc1nn2c(=O)cc(COC(=O)CNC(=O)c3cccc(C)c3)nc2s1	Nrf2 block inconclusive (no result: p53 reactivation)
CN(C)c1ccc(/C=C/c2ccnc3c(Cl)ccc(Cl)c23)cc1	none (no result: p53 reactivation, Nrf2 block, Nrf2 activator, A549 tox, miR-21 reporter)
Cc1ccc(-c2n[nH]c(=O)c3ccccc23)cc1N	Nrf2 block inconclusive
Nc1ccc(-c2n[nH]c(=O)c3ccccc23)cc1N	Nrf2 block 16.4µM
